{"source": "patent US20240390359A1", "about": "“METHODS FOR THE TREATMENT AND PREVENTION OF NON-VIRAL TICK-BORNE DISEASES AND SYMPTOMS THEREOF” (priority 2023, published 2024)", "origin": "cited, not measured here", "key": {"[1]": {"test_system": "blood stages of P. falciparum", "details": "in vivo; cited from earlier work"}, "Babesia microti": {"test_system": "Babesia microti", "details": "Mongolian jirds; primaquine given daily; cited from earlier work"}}, "data": [{"smiles": "COc1cc(NC(C)CCCN)c2ncccc2c1", "note": "(centres unmarked) [primaquine]", "values": [{"measurement": "activity against the blood stages of P. falciparum", "setting": "[1]", "result": "only weak activity"}, {"measurement": "efficacy against Babesia microti", "setting": "Babesia microti", "result": "only suppressive"}]}]}
